In PubChem BioAssay AID588436 (Broad Institute, 2011):
This is a selection; strong and weak results do not stand in their true shares. The source made the active and inactive calls. No stated cut-off is given here; in the data, active means activation mostly above about 9.7% (no sharp cut-off); inconclusive means no clear call, values can overlap the other calls; inactive means mostly below about 3.7%.

Experiment: inducers of Vibrio cholerae quorum light production without autoinducers, primary screen, BH1578 luxS cqsA deficient, single point (AID 588436)
Conditions: V. cholerae BH1578 lux reporter, luminescence, 6 h; at 18.7 µM; active compounds read high

SMILES	activation
NC(=O)Nc1ccc([As](=O)(O)O)cc1	inactive: -0.32%
